Experimental data reported in PubChem BioAssay AID2178 (The Scripps Research Institute Molecular Screening Center, 2009).
The list shows a part of the results, in another mix than the full data. Active and inactive are the calls of the source.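 The calls were made as follows: active = average inhibition across replicates above the hit cutoff set in the earlier primary screen; inactive = the rest.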

Amino acid sequences for entries named in this document (tags omitted). A change or cut given only in a name is not applied to a line headed by its entry.
UniProt P07711: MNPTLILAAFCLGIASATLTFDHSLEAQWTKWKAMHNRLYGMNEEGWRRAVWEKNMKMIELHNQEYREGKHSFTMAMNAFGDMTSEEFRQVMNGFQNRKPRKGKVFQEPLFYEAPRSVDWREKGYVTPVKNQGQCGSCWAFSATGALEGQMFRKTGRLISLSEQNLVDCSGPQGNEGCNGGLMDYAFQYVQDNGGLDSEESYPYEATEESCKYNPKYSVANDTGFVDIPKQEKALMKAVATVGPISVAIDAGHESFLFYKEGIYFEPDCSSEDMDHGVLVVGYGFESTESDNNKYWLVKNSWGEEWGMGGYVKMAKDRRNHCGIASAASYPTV

molecular target: Procathepsin L (Homo sapiens) (UniProt P07711); assay: cathepsin L1 inhibitors, retest, confirmation, counter-screen for PFM18AAP inhibitor project, biochemical, QFRET, triplicate (AID 2178); conditions: purified cathepsin L1, Z-Leu-Arg-MCA fluorescence; at 5.96 µM; stronger effect = higher value;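 also: 0% = median of test compound wells and 100% = Z-Phe-Ala-diazomethylketone 1 µM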
Summary of the method: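 System: Purified cathepsin L1 | Amount: Enzyme 1.5 µg/mL before substrate addition | Also added: Z-Leu-Arg-MCA fluorogenic substrate | Incubation: Enzyme-compound preincubation 30 min, substrate reaction 90 min, 25 °C | Technique: MCA fluorescence measured at substrate addition and at 90 min | Measure: Percent inhibition from fluorescence change | Replicates: Triplicate wells per compound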

SMILES	inhibition
CC(C)=N/N=C(\N)N[N+](=O)[O-]	inactive: -0.17%
